# Literature values as cited in patent US5972958A, “4-aminoalkoxy-1,3-dihydro-benzoimidazol-2-thiones” (American Home Products Corporation, priority 1998, dated 1999).
# System: β-adrenergic receptor
# Conditions: J. Biol. Chem., 258, 3496-3502, 1983; cited from earlier work
smiles,measurement,value
CC(C)(C)NCC(O)COc1cccc2[nH]c(=O)[nH]c12 (stereo not shown) [CGP-12177],β-adrenergic receptor antagonist activity,β-adrenergic receptor antagonist
